Laboratory results as given in article PMC4543428 (European journal of pharmacology, 2015).

Sequences of proteins named here, by UniProt entry; tags and fusion partners are left off.
UniProt O55242, whole entry: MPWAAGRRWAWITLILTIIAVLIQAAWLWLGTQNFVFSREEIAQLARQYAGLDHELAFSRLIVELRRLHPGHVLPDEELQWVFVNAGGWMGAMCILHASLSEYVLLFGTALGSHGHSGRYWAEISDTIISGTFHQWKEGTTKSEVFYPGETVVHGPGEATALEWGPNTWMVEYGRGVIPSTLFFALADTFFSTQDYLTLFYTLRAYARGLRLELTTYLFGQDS

What was measured:
sigma1 receptor = sigma1 receptor (Mus musculus, UniProt O55242); conditions: 1.0 nM [3H](+)-pentazocine; 6 h; 37 °C; mouse lung membranes
sigma2 receptor = molecular target: T1, sigma2 receptor (Mus musculus, UniProt Q8VD00); test: Sigma2 receptor competition binding against [3H]DTG /; conditions: mouse lung membranes; sigma2 Ki / sigma1 Ki
T1 sequence (Q8VD00 1-176): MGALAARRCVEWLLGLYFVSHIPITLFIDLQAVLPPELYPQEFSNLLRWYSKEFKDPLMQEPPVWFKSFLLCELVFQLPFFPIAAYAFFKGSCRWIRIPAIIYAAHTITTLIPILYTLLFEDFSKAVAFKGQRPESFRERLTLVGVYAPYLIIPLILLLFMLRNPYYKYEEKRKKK

For (−)-cocaine hydrochloride, the “Sigma1 nH (pseudo-Hill slope)” value (sigma1 receptor) was 1.18 ± 0.19 and the “Selectivity Ki Ratio σ2/σ1” value (sigma2 receptor) was 30.
